Measurements from patent US9340574B2, “Inhibitors of protein tyrosine phosphatases” (Indiana University Research and Technology Corporation, priority 2012, dated 2016).

Amino acid sequences for entries named in this document (tags omitted). Residues count along the entry.
UniProt P43378, 277-582 limits assumed: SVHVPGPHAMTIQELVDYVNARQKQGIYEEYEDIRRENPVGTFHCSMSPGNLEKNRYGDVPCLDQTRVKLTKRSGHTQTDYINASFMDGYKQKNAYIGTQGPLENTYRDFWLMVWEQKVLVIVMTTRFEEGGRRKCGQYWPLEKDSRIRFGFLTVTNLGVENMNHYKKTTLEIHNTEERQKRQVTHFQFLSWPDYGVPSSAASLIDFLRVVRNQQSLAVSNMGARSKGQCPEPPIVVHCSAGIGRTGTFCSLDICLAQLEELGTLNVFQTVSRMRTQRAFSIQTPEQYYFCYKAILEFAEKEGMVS

How the values were obtained:
PTP-MEG2 = PTP-MEG2 (Homo sapiens (Human), UniProt P43378); assay: pNPP hydrolysis enzyme assay, PTP-MEG2; details: read-out: IC50 for PTP-MEG2; pNPP substrate, pH 7.0, 25° C.
HepG2 hepatocytes = assay: Insulin signaling in HepG2 hepatocytes; details: HepG2, 1 hour pretreatment, 10 nM insulin 30 min
[1] = system: 3T3-L1 differentiated adipocytes; assay: Insulin signaling in 3T3-L1 differentiated adipocytes; details: 3T3-L1 adipocytes, 1 hour pretreatment before insulin
[2] = system: insulin signaling in mouse primary hepatocytes; assay: Insulin signaling in mouse primary hepatocytes (Western blot); format: cell-based; details: 200 nM concentration
Procedure: FIGS. 4A-B depict the ability of PTP-MEG2 inhibitor Compound 7 to sensitize insulin signaling in primary hepatocytes. […] Mouse primary hepatocytes were cultured in 0.5% FBS DMEM medium overnight. Prior to insulin stimulation, the cells were pretreated with Compound 7 or 8 for 1 hour. Then the cells were stimulated with 5 nM insulin for 5 minutes. Insulin signaling was analyzed by Western Blots using phospho-specific antibodies. […] Mouse primary hepatocytes were cultured in DMEM medium plus 0.5% FBS for overnight in the presence or absence of insulin or Compound 7 or 8. Then the cells were harvested for mRNA isolation and gene expression analysis using real-time PCR. The mRNA levels of Foxo1 target genes were normalized with Ppia as an internal control. […]
Mouse primary hepatocytes were isolated and cultured in DMEM medium with 0.5% FBS for 12 hours, and then were incubated with either vehicle DMSO, Compound 7 (100 nM), or Compound 8 (100 nM) for one hour. Phosphorylated IR, Gsk3β, and Foxo1 and the corresponding total proteins were analyzed by Western blots. […]
Western blot analysis. […] Protein signals were detected by incubation with HRP-conjugated secondary antibodies, followed by ECL detection reagent (Pierce). Western blots were scanned and quantified using the Quantity One software (Bio-Rad).

C2C12 myotubes = assay: Insulin signaling in C2C12 myotubes; details: 1 hour pretreatment, 100 nM insulin 30 min

Question: For `CCc1ccc(C(=O)NCCCCC(NC(=O)C(Cc2ccc(C(F)(F)P(=O)(O)O)cc2)NC(C)=O)C(N)=O)cc1` (stereo not drawn), which IC50 (PTP-MEG2) is on record?
Answer: 9 µM

Question: For `COc1cc(CC(=O)NCC(NC(=O)C(CCCNC(=O)c2cccc(I)c2)NC(=O)C(Cc2ccccc2)NC(=O)c2ccc(C)c(Br)c2)C(N)=O)ccc1O` (stereo not drawn), which “insulin signaling (phospho-IR, phospho-Akt)” value (HepG2 hepatocytes) is on record?
Answer: not

Question: What about the “insulin signaling (phospho-Akt, phospho-IR)” value [1] of the same compound?
Answer: not

Question: What about the IC50 (PTP-MEG2) of the same compound?
Answer: > 1 µM

Question: What about the “effect on insulin-mediated phosphorylation” value [2] of the same compound?
Answer: no effect

Question: What about the “insulin signaling (phospho-Akt, phospho-IR)” value (C2C12 myotubes) of the same compound?
Answer: not
